## AlphaSeq binding of Ab-95 light chain variants to a spike HR2 peptide

Antigen: PDVDLGDISGINAS, a 14-residue peptide of the SARS-CoV-2 spike HR2 region.

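AAYL52 was designed without a model: most single CDR substitutions and a random sample of double and triple ones. Affinity was read by AlphaSeq, a pooled yeast mating assay with surface-displayed partners. Mating (16 h, 30 °C) was followed by selection of diploids and sequencing of their barcodes. A regression on co-assayed BCL2-family reference pairs converts the normalised counts of each replicate to an apparent Kd. The assay was run in three technical replicates.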

Each scFv is VH, three GGGGS repeats, VL, as in the parent Ab-95, and differs from it in the CDRs of the light chain only.
VH: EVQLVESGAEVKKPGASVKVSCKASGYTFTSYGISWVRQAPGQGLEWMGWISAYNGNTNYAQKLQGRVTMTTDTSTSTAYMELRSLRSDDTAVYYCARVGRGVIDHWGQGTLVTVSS
VL: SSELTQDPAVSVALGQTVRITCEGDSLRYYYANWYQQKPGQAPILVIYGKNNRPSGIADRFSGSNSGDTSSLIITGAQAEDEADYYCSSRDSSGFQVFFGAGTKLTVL

Variants are written as CDR1, CDR2 and CDR3 of the light chain (limits as in the source). Parent: EGDSLRYYYAN, GKNNRPS, SSRDSSGFQVF.
This list gathers variants with a substitution at Y30 (VL, numbered from residue 1).
Affinities are written as log10 Kd with Kd in nM; a lower number is a better binder.
A mean of the replicates is given; it leaves out those without a signal.
"nd" means that the variant was in the library but no mating with the target was seen in that replicate; the authors take this as a sign of poor binding, and no number exists.
For reference, the parent read 2.31 as the reference entry and 2.25 as a member of this library.
Nonspecific signal, from three strains lacking the peptide, appeared in 28% of pairings of library AAYL52, centred on 3.91 (5% of these signals below 2.90); values are not corrected for it.

With EGDSLRYDYMN | GKNNRPS | SSRDSSGFMVF the result was 4.79, nd, nd. For EGDHLRYRYAN | GKNNRPS | SSRDSYGFQVF, the assay gave 2.55, 2.66, 2.17 (mean 2.46). The variant EGDSFRYGYAN | GKNNRPS | SSRDSSPFQVF gave 1.50, 1.41, 1.15 (mean 1.35). With EGDSLRYEYAN | GKNMRPS | SSRDRSGFQVF the result was 1.19, 1.13, 0.50 (mean 0.94). The variant EGDSLRYLYAN | GKNNRPS | SMRDSSGFNVF showed 1.51, 1.39, 0.88 (mean 1.26). For ESDSLRYVYAN | GKNNRPS | SSRDSHGFQVF, the assay gave 3.26, nd, 3.97 (mean 3.61). With QGDSLRYTYAN | GKNNRPS | SSRDSSGFQAF the result was nd, 3.96, nd. With EGASLRYEYAN | GKMNRPS | SSRDSSGFQVF the result was 2.26, 2.01, 1.73 (mean 2.00). With EGDGLRYQYAN | GKNNRWS | SSRDSSGFQVF the result was 1.90, 1.99, 1.78 (mean 1.89).

The variant EGDSLRLSYAN | GKNNRPS | SSRDASGFQVF showed 1.30, 1.08, 0.48 (mean 0.95). For EGDSLRYPYAN | GKNNRPS | SSRDSSDFQVF, the assay gave 1.92, 2.32, 2.03 (mean 2.09). The variant EGDSLRERYAN | GKNNRPS | FSRDSSGFQVF gave 2.74, 2.35, 2.20 (mean 2.43). The variant EKDSLRYNYAN | GKNGRPS | SSRDSSGFQVF showed nd, 3.85, nd. The variant EGDSLRYEYAN | GKNNRPS | SSRDSSGFQVF gave 1.87, 1.46, 1.15 (mean 1.49). With EGDSLRYMYAN | GNNNRPS | SSRDSSGFRVF the result was 3.36, 3.23, nd (mean 3.29). The variant EGDSLRYHYLN | GKNNRPE | SSRDSSGFQVF gave 2.56, 2.21, 2.52 (mean 2.43). With EGDSLRYWYAN | GKNLRPS | SSRDSSGFQVD the result was nd, 4.21, 4.16 (mean 4.19). With EGDSLRYVPAN | GKNNRCS | SSRDSSGFQVF the result was 2.41, 2.17, 1.94 (mean 2.18).

For EGDSLRYSYAN | IKNNRLS | SSRDSSGFQVF, the assay gave 5.55, 3.88, nd (mean 4.72). With EGDSLRYSYAN | GKNNRPW | SSRDSSGDQVF the result was 1.80, 1.72, 1.06 (mean 1.53). With EGDSLRYHAEN | GKNNRPS | SSRDSSGFQVF the result was 2.44, 2.49, 2.17 (mean 2.37). For EQDSLRYKYAN | GKNNRPS | ISRDSSGFQVF, the assay gave 4.31, nd, nd. For EGDSLRYTYAH | GVNNRPS | SSRDSSGFQVF, the assay gave 3.78, 3.06, nd (mean 3.42). For EGDSLRYDYAN | GKNNRPS | SSRDSSGFQNF, the assay gave nd, nd, nd. With EGDSLRYSYAN | GKNNRPS | SSRDSSVFQVF the result was 1.25, 1.28, 0.79 (mean 1.11). With EGDSLGYIYAN | GKNNRPS | VSRDSSGFQVF the result was 5.30, 5.71, 4.25 (mean 5.09). The variant EGDSLRYKYMN | GKNNRPS | SSRISSGFQVF showed nd, nd, nd.

With EGDSLRYIYAD | RKNNRPS | SSRDSSGFQVF the result was nd, 2.25, nd. The variant QGDSLGYVYAN | GKNNRPS | SSRDSSGFQVF gave 1.26, 1.17, 0.61 (mean 1.02). The variant EGDSLRYNYRN | GKNRRPS | SSRDSSGFQVF showed nd, nd, nd. The variant IGDSLRYAYAN | GKNNRPS | SERDSSGFQVF showed 2.51, 2.45, 2.02 (mean 2.33). The variant EGDPLRYPYAN | GKNNRPS | SSIDSSGFQVF showed 1.96, 1.46, 1.61 (mean 1.67). The variant CGDSLRYIYAN | GKNNRIS | SSRDSSGFQVF gave nd, nd, nd. For EGDSLRWQYAN | GKNNRPS | SSRDSQGFQVF, the assay gave 1.27, 1.19, 0.66 (mean 1.04). The variant EGDSLSYTYAN | AKNNRPS | SSRDSSGFQVF gave 2.63, 2.92, 2.44 (mean 2.66). With EGDSLWYAYAN | GKNNRPS | SSRDSSGFQEF the result was 2.13, 2.31, 2.45 (mean 2.30).

With EGDSLRYWYAC | GKKNRPS | SSRDSSGFQVF the result was 4.69, nd, nd.

The last 3 entries again:

{"CDR-L1": "EGDSLSYTYAN", "CDR-L2": "AKNNRPS", "CDR-L3": "SSRDSSGFQVF", "replicates, log10 nM": "2.63, 2.92, 2.44", "mean log10 Kd (nM)": "2.66"}
{"CDR-L1": "EGDSLWYAYAN", "CDR-L2": "GKNNRPS", "CDR-L3": "SSRDSSGFQEF", "replicates, log10 nM": "2.13, 2.31, 2.45", "mean log10 Kd (nM)": "2.30"}
{"CDR-L1": "EGDSLRYWYAC", "CDR-L2": "GKKNRPS", "CDR-L3": "SSRDSSGFQVF", "replicates, log10 nM": "4.69, nd, nd", "mean log10 Kd (nM)": "4.69"}

Source: Engelhart et al. 2022 (doi:10.1038/s41597-022-01779-4), MIT Lincoln Laboratory and A-Alpha Bio; data file from the FLAb repository.